Assay results as given in publication PMC2691528 (European Journal of Nuclear Medicine and Molecular Imaging, 2009).

The chains behind the UniProt entries cited, without tags or fusion partners.
UniProt Q9R0C9, whole entry: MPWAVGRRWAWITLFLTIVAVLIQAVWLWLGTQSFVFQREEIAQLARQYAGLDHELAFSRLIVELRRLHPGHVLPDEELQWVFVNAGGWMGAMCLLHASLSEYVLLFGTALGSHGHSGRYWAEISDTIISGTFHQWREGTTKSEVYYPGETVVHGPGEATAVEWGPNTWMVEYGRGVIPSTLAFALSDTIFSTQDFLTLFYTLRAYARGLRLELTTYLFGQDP

Biological target: cellular sigma receptors (C6 rat glioma cells) (Rattus norvegicus, UniProt Q9R0C9)
Assay: Competition with 11C-SA4503 binding to intact C6 glioma cell monolayers

CC(=O)[C@H]1CC[C@H]2[C@@H]3CCC4=CC(=O)CC[C@]4(C)[C@H]3CC[C@]12C [progesterone]
competition with 11C-SA4503 for binding to cellular sigma receptors (50 µM competitor added to normal growth medium (DMEM with 7.5% FCS)): measurable competition | reduction of 11C-SA4503 radioligand binding to C6 cells (50 µM competitor, steroid-free medium): 60% | rank order of potency as competitor of 11C-SA4503 binding (C6 cells, both normal and steroid-depleted medium, 50 µM): progesterone > androstanolone = testosterone = allopregnanolone > DHEA-S; also recorded: most potent steroid inhibitor

“Also recorded” adds a separate entry of the source.
